# Source: PubChem (National Center for Advancing Translational Sciences (NCATS))
# Shown are actives, neighbours in structure and some others; about 16% of the full set was active somewhere.
# uPA surface inh: blocks generation of uPA at the cell surface. hit rate 0.31% among 330,000. cell surface uPA generation assay, qHTS. Potency, µM (highest dose often 38.3 µM), for the others: at the top dose activity change, negative = inhibition, usual class: inhibitors. AID 540303; active means well fitted inhibition curve with a large enough effect; inconclusive means small, poorly fitted or top-dose-only effect; inactive means no such curve, though single readings can be large or run the other way; tested in mouse RAW 264.7 cells; further: potency means the concentration at half of the fitted maximal effect; on the % scale 0 is the no-effect control and ±100 the full control effect; nearly all actives have a fitted effect of over 55% in size
# TDP1 inh: inhibitors of human tyrosyl-DNA phosphodiesterase TDP1; hit rate 0.28% among 350,000; Potency, µM (titrated, usually from 130 µM), inactives show at the highest dose activity change, negative = inhibition, hits mostly inhibitors; Q9NUW8; recombinant TDP1, AlphaScreen DNA substrate cleavage; further: potency means the concentration at half of the fitted maximal effect; on the % scale 0 is the no-effect control and ±100 the full control effect; nearly all actives have a fitted effect of over 40% in size
#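 AlphaScreen read-out: signal falls as enzyme removes the 3' tyrosine-FITC from a 5'-biotinylated DNA oligo (15 nM, 5 min, RT). Enzyme was E. coli-made recombinant Tdp1 at 1 nM, exposed to compound for 15 min beforehand; beads 10 ug/ml, 10 min.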
# miR-21 reporter: raises the signal of a miR-21 reporter | HeLa miR-21 FLuc reporter, luciferase, 48 h | Potency, µM (highest dose often 38.3 µM), for inactives: at the highest dose reporter change, positive = more light | 340,000 tested, under 10 active | AID 2288; active = well fitted rising curve with a large enough effect; inconclusive = small, poorly fitted or top-dose-only effect; inactive = no such curve, though single readings can be large or run the other way;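 also: % of control where 0% means no effect; miR-21 action dims this reporter so a rising signal means less miR-21 action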
#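 HeLa cells endogenously expressing miR-21, stably carrying CMV-driven firefly luciferase with a downstream miR-21 binding site, 2000 cells/well. Titrations up to approximately 40 uM, 48 hours; luciferase luminescence read.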
# TDP1 cell CPT: DT40-hTDP1 cell growth loss with CPT; hit rate 12% among 420,000; chicken DT40 Tdp1-/-;hTDP1 cells + 20 nM CPT, ATP luminescence, 48 h; AID 686979; Potency, µM (titrated, usually from 46.2 µM), inactives show at the highest dose activity change, negative = growth inhibition, most hits filed as inhibitors; further: potency means the concentration at half of the fitted maximal effect; on the % scale 0 is the no-effect control and ±100 the full control effect; nearly all actives have a fitted effect of over 55% in size
#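 Cell growth measured by CellTiter-Glo luminescence after a minimum 48 h, 37 C compound exposure with 20 nM CPT in Tdp1-knockout DT40 cells stably expressing hTDP1, seeded 400/well; qHTS titration format.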
# TDP1 cell noCPT: qHTS for Inhibitors of human tyrosyl-DNA phosphodiesterase 1 (TDP1): qHTS in cells in absence of CPT. Potency, µM (doses to about 46.2 µM), for inactives: at the top dose activity change, negative = growth inhibition, usual class: inhibitors. hit rate 15% among 420,000. DT40 Tdp1-/- hTDP1 cells, no CPT, ATP luminescence, 48 h. AID 686978, 2013; further: potency means the concentration at half of the fitted maximal effect; on the % scale 0 is the no-effect control and ±100 the full control effect; nearly all actives have a fitted effect of over 55% in size
#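 Camptothecin absent (DMSO only). Human TDP1-complemented DT40 knockout cells, 400 cells/well, 37 °C for minimum 48 hr; ATP measured via CellTiter-Glo, 30 min dark incubation, luminescence.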
# An asterisk follows results filed as active; ? = inconclusive; . = no result given; [ ] = remark or other dose. Unless noted, the call rests on the fitted dose curve; in most records, active means well fitted curve in the direction sought with a large enough effect; inconclusive means small, poorly fitted or top-dose-only effect, or another doubt; inactive means no such curve, though single readings can be large; an effect the other way counts as inactive or inconclusive.
# Labels used below – A = uPA surface inh; B = TDP1 inh; C = miR-21 reporter; D = TDP1 cell CPT; E = TDP1 cell noCPT
Structure: CC(=O)Nc1ccc(N2C(=O)CSC2c2cccc(Br)c2)cc1 (centres undefined)
  A: 1% | B: . | C: -3% | D: -1% | E: -8%

Structure: C=CCNc1nc(NCCOc2ccccc2Cl)c2sc(-c3ccccc3)cc2n1
  A: . | B: . | C: . | D: 15µM* | E: 15µM*

Structure: C=CCNc1nc(Nc2ccc(OC)c(OC)c2)c2sc(-c3ccccc3)cc2n1
  A: . | B: . | C: . | D: 1.8µM* | E: 1.6µM*

Structure: O=C1OCCN1C(=O)[C@H]1[C@H](c2ccccc2)C(c2ccccc2)=NN1c1ccc(Br)cc1
  A: 13% | B: -9%[56.1 µM] | C: . | D: -26% | E: ?

Structure: CC1=CC(C)(C)N(C(=O)c2ccccc2)c2ccc(C)cc21
  A: 8% | B: 1% | C: -1% | D: 15µM* | E: 23µM*

Structure: O=C(CN(C(=O)c1ccccc1)N1C(=O)CCC1=O)c1cccs1
  A: 17% | B: 4% | C: -11% | D: 5% | E: -3%

Structure: CCOC(=O)C1(CCc2ccccc2)CCN(Cc2ccc(O)cc2)CC1
  A: ? | B: 4% | C: 17% | D: 16µM* | E: 21µM*

Structure: CCOC(=O)C1(CCc2ccccc2)CCN(Cc2ccc(OC)cc2)CC1
  A: -1% | B: . | C: -1% | D: -14% | E: 9%

Structure: CCOC(=O)C1(CCc2ccccc2)CCN(Cc2c(O)cccc2OC)CC1
  A: . | B: -5% | C: 15% | D: 26µM* | E: 13µM*

Structure: Cc1cc(-c2n[nH]c(=S)n2/N=C/c2sccc2C)n[nH]1
  A: 1% | B: 8% | C: -6% | D: -1% | E: 0%

Structure: COc1ccc(C(=O)Nc2cc(C(=O)c3ccccc3)c(C)oc2=O)cc1
  A: -13% | B: 9% | C: ? | D: 13µM* | E: 10µM*

Structure: COC(=O)c1cc(NC(=O)c2ccccc2)c(=O)oc1C
  A: -1% | B: -3% | C: -1% | D: 8% | E: -17%

Structure: Cc1oc(=O)c(NC(=O)c2cccc(Cl)c2)cc1C(=O)c1ccccc1
  A: -11% | B: 14% | C: 24% | D: 29µM* | E: 21µM*

Structure: CC(=O)c1cc(NC(=O)c2ccc([N+](=O)[O-])cc2)c(=O)oc1C
  A: -6% | B: -6% | C: 13% | D: ? | E: 23µM*

Structure: N#C/C(=C\c1cccc(F)c1)c1nc(-c2cc3ccccc3oc2=O)cs1
  A: . | B: -1%[12.3 µM] | C: -7% | D: -2% | E: -8%

# Quoted at random: 3 records from the list, in no set order.
# Labels used below – A = uPA surface inh; B = TDP1 inh; C = miR-21 reporter; D = TDP1 cell CPT; E = TDP1 cell noCPT
Structure: CCOC(=O)C1(CCc2ccccc2)CCN(Cc2c(O)cccc2OC)CC1
  A: . | B: -5% | C: 15% | D: 26µM* | E: 13µM*

Structure: N#C/C(=C\c1cccc(F)c1)c1nc(-c2cc3ccccc3oc2=O)cs1
  A: . | B: -1%[12.3 µM] | C: -7% | D: -2% | E: -8%

Structure: CC(=O)Nc1ccc(N2C(=O)CSC2c2cccc(Br)c2)cc1 (centres undefined)
  A: 1% | B: . | C: -3% | D: -1% | E: -8%

# Remaining list, next part.
# Labels used below – A = uPA surface inh; B = TDP1 inh; C = miR-21 reporter; D = TDP1 cell CPT; E = TDP1 cell noCPT
Structure: CCN(CC)CCOC(=O)c1ccc(N/C=C(/C#N)c2nc(-c3cc4ccccc4oc3=O)cs2)cc1
  A: -9% | B: . | C: -4% | D: 1.2µM* | E: 2.3µM*

Structure: CCN(CC)CCOC(=O)c1ccc(N/C=C(/C#N)c2nc(-c3ccc(OC)cc3)cs2)cc1
  A: 1% | B: . | C: -17% | D: 4.1µM* | E: 4.6µM*

Structure: CCN(CC)CCOC(=O)c1ccc(N/C=C(/C#N)c2nc(-c3ccc4c(c3)OCO4)cs2)cc1
  A: -1% | B: . | C: -21% | D: 3.7µM* | E: 5.2µM*

Structure: COc1ccc(/C=C(/C#N)c2nc(-c3ccc(-c4ccccc4)cc3)cs2)cc1
  A: . | B: 2%[12.3 µM] | C: -3% | D: ? | E: ?

Structure: N#C/C(=C\C=C\c1ccccc1)c1nc(-c2ccc3c(c2)OCO3)cs1
  A: -1% | B: 3% | C: -5% | D: -10% | E: -21%

Structure: CCc1nnc(NC(=O)C2CCCN(S(=O)(=O)c3ccccc3)C2)s1 (centres undefined)
  A: 4% | B: 2% | C: 1% | D: -27% | E: -15%

Structure: N#CCc1nc(-c2cc3ccccc3oc2=O)cs1
  A: -3% | B: -2% | C: -33% | D: ? | E: ?

Structure: O=S(=O)(c1ccccc1)N1CCN=C1SCc1c(F)cccc1Cl
  A: ? | B: -2%[56.1 µM] | C: -17% | D: 13µM* | E: ?

Structure: Cc1ccc(CSC2=NCCN2S(=O)(=O)c2ccc(C)cc2)cc1
  A: . | B: . | C: . | D: 23µM* | E: ?

Structure: Cc1ccc(C)c(CSC2=NCCN2S(=O)(=O)c2ccccc2)c1
  A: -5% | B: . | C: 0% | D: 18µM* | E: 16µM*

Structure: Cc1ccc(S(=O)(=O)N2CCN=C2SCc2ccc(Cl)c(Cl)c2)cc1
  A: 0% | B: -10% | C: -5% | D: -5% | E: -29%

Structure: O=S(=O)(c1ccccc1)N1CCN=C1SCc1cccnc1
  A: 2% | B: 8% | C: -12% | D: 5% | E: -17%

Structure: Oc1ccc(Nc2ccccc2F)c2cccnc12
  A: . | B: 5% | C: . | D: . | E: .

Structure: O=C(c1ccccc1Cl)n1nc(-c2ccco2)nc1NCc1cccs1
  A: . | B: -7% | C: -28% | D: ? | E: -19%

Structure: CCC(=O)Nc1ccc(C(=O)N/N=C/c2c(C)[nH]c3ccccc23)cc1
  A: -2% | B: 4% | C: 1% | D: -18% | E: ?
